Results as given in PMC11091220, “Metabolism-driven in vitro/in vivo disconnect of an oral ERɑ VHL-PROTAC” (Communications Biology, 2024).

Protein sequences, listed by entry. Tags and fused reporters are not part of them. Residues count along the entry.
UniProt P03372, whole entry: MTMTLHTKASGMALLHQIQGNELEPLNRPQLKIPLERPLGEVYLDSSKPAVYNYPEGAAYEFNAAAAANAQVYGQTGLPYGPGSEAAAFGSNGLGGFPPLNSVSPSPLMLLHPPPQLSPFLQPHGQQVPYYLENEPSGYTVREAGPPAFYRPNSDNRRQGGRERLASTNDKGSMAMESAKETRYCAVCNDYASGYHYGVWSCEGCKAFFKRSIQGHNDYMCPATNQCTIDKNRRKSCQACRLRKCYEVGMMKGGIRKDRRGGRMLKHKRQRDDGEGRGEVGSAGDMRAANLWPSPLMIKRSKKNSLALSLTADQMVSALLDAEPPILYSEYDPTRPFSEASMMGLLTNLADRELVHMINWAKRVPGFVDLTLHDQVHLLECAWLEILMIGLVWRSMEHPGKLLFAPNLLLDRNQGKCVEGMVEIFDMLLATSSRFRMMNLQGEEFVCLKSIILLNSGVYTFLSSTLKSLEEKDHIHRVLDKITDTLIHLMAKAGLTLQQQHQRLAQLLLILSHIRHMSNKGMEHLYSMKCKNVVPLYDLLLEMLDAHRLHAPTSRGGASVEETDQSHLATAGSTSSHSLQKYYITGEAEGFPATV
UniProt P03372, 311-547 limits assumed: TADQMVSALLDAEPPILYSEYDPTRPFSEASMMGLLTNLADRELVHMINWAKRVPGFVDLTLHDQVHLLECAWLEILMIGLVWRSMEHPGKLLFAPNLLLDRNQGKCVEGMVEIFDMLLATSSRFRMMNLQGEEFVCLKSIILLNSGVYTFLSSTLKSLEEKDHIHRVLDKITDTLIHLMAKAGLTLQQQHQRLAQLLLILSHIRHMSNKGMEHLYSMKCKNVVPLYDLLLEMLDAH

Key:
[1] = molecular target: recombinant human ERα ligand binding domain (LBD) (Homo sapiens, UniProt P03372); assay: ERα binding assay (LanthaScreen TR-FRET competition); conditions: read-out: ERa binding, Mean, Table S4 source data
ERα = ERα (Homo sapiens, UniProt P03372); assay: ERα high throughput imaging degradation assay in MCF7 cells; assay type: cell-based
Procedure: Cells were fixed, permeabilised and stained with anti-ERα (rabbit clone SP1, Thermo) and anti-PR (mouse clone PgR 636, Dako) antibodies followed by secondary AlexaFluor 594 goat anti-rabbit and AlexaFluor 488 goat anti-mouse IgG antibodies. Imaging was using the Thermo Cellinsight scanner and average fluorescence intensity was analysed using Genedata.

## Cc1ncsc1-c1ccc(CNC(=O)[C@@H]2C[C@@H](O)CN2C(=O)[C@@H](NC(=O)COCC2CC2COCCOc2cc(F)c([C@@H]3c4[nH]c5ccccc5c4C[C@@H](C)N3CC(C)(C)F)c(F)c2)C(C)(C)C)cc1 (single isomer, unassigned) [12]
[1]
  IC50: 1 nM
ERα; Table S4 source data
  ERa degradation, Dmax (%): 91%
ERα; read-out: ERα imaging degradation DC50, MCF7 cells, 20 to 24 hours
  DC50: 0.7 nM
